Experimental data from PubChem BioAssay AID1346428 (National Center for Advancing Translational Sciences (NCATS), 2018).
The entries are a selection whose mix differs from that of the whole data set. The source made the active and inactive calls.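 The calls were made as follows: active = activation of at least 60% and not above a set upper limit (about 1 call in 100 departs from these limits); inconclusive = activation of 40% to 60%, or above that upper limit; inactive = activation under 40%.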

Sequences of proteins named here, by UniProt entry; tags and fusion partners are left off.
UniProt O75388, whole entry: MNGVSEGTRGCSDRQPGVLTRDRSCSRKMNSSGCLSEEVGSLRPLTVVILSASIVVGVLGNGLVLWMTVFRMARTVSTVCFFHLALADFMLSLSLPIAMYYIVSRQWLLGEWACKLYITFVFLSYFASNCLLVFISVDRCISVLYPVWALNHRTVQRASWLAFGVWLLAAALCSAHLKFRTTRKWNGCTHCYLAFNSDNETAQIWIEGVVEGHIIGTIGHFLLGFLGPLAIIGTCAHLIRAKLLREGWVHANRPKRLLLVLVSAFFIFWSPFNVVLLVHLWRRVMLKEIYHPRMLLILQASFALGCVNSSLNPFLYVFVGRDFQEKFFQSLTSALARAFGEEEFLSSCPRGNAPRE

The compounds below were run against Probable G-protein coupled receptor 32 (Homo sapiens) (UniProt O75388) (assay: qHTS for Agonists of Human Resolvin D1 Receptor DRV1). Conditions: CHO-K1 GPR32 beta-arrestin PathHunter luminescence, 90 min; at 76.9 µM; active compounds read high; zero percent set by DMSO-only wells.
Also: 0% is about no effect.

Compound | activation
CCC(=O)N(c1ccccc1)C1(COC)CCN(CCn2nnn(CC)c2=O)CC1 | inactive: -14.4%
CCC(=O)N(c1ccccc1)C1(COC)CCN(CCc2cccs2)CC1 | inactive: -1.63%
CN(CCCl)CCCl | inactive: -23.2%
